Biological target: T1, AP-2α (TP304603, Origene) (UniProt P05549 1-437)
T1 construct: transcription factor AP-2α, bought recombinant protein, Origene TP304603; also called coated AP-2α; source: bought: Origene (TP304603)
Assay: ELISA; 200 nM AP-2α coated; increasing concentrations of KCTD1^WT (from 18 nM to 500 nM); detection with an anti-KCTD1 antibody
Details: both partners purified

Sequences of proteins named here, by UniProt entry; tags and fusion partners are left off. A change or cut given only in a name is not applied to a line headed by its entry.
UniProt P05549: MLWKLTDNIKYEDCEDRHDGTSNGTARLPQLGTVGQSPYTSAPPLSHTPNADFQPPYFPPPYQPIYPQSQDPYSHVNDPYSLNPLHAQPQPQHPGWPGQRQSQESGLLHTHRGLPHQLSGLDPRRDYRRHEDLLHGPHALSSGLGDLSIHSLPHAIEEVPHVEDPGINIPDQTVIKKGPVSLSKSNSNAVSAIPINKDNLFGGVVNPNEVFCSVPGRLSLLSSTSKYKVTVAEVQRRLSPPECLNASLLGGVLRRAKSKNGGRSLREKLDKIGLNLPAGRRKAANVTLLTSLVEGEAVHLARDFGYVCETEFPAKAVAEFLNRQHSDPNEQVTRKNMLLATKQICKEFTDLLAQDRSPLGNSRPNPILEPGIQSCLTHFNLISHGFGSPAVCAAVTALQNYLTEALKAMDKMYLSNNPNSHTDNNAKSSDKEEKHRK

B1: KCTD1^WT (protein used in the ELISA and thioflavin T experiments) (natural protein, UniProt Q719H9 1-257, looked up)
chain: MSRPLITRSPASPLNNQGIPTPAQLTKSNAPVHIDVGGHMYTSSLATLTKYPESRIGRLFDGTEPIVLDSLKQHYFIDRDGQMFRYILNFLRTSKLLIPDDFKDYTLLYEEAKYFQLQPMLLEMERWKQDRETGRFSRPCECLVVRVAPDLGERITLSGDKSLIEEVFPEIGDVMCNSVNAGWNHDSTHVIRFPLNGYCHLNSVQVLERLQQRGFEIVGSCGGGVDSSQFSEYVLRRELRRTPRVPSVIRIKQEPLD
notes: wild-type KCTD1 protein; also called WT KCTD1
**Q.** For B1, which Kd is on record?
**A.** 30 nM
